Results from patent US8367720B2 (Panorama Research Inc., priority 2007, dated 2013).
Read-outs that look alike come from different tables or passages of the source.

Tests used:
[1] = system: BF of Pseudomonas aeruginosa; assay: Scanning electron microscopy (SEM) experiment, biofilm (BF) formation; format: cell-based; settings: 1 mM; early BF 3rd day, mature BF 7th day (FIG. 6, 7)
[2] = system: MRSA5677; assay: Test of minimal inhibitory concentration (MIC); format: cell-based, Staphylococcus aureus; settings: 24 h; for MIC: Staphylococcus aureus, read-out: MIC, MRSA5677
[3] = system: Staphylococcus aureus wild type; assay: Test of minimal inhibitory concentration (MIC); format: cell-based; settings: for MIC: Staphylococcus aureus
[4] = system: rats with STZ-induced diabetes mellitus; assay: Therapeutical effects on STZ-induced diabetes mellitus in rats; settings: Day 0, before treatment
[5] = system: MRSA5676; assay: Test of minimal inhibitory concentration (MIC); format: cell-based, Staphylococcus aureus; settings: 24 h; for MIC: Staphylococcus aureus, read-out: MIC, MRSA5676
[6] = system: MCF-7 cells; settings: MCF-7, 5 μM, cited from earlier work
[7] = system: L1210 cells; format: cell-based; settings: concentration not given
[8] = system: Pseudomonas aeruginosa (PAO1); settings: 12.5 mg/mL (34 mM); cited from earlier work
[9] = two-fold dilution, 37° C., absorbance 595 nm

Compound | formation of early and mature BF of Pseudomonas aeruginosa under SEM [1] | MIC [2] | MIC [3] | MIC ([3]; 24 h, read-out: MIC, Wild type) | Blood glucose [4] | Body weight [4] | Total cholesterol [4] | Total triglyceride [4] | MIC [5] | increase of cells of G1 phase ([6]; 24 h, vs DMSO control) | increase of MCF-7 cells of sub-G1 phase ([6]; 48 h, vs control) | effect on cell cycle of L1210 cells [7] | growth of the cultured PAO1 [8] | production of Pseudomonas aeruginosa and the activities of protease and elastase [8] | MIC, MRSA5677 [2, 9] | MIC, Wild type ([3]; two-fold dilution, 37° C., 24 h, absorbance 595 nm) | MIC, MRSA5676 [5, 9]
C=C1CCC2[C@@](C)(CC[C@@H](O)[C@@]2(C)CO)C1C/C=C1/C(=O)OCC1O (some centres unmarked) [Andro, Andrographolide] | did not significantly inhibit the formation of BF | > 1000 µM | > 1000 µM | > 1000 µM | 22.15 ± 0.35 mmol/L | 198.33 ± 10.69 g | 3.15 ± 1.67 mmol/L | 8.44 ± 2.45 mmol/L | > 1000 µM | 10% | 7% | arrested L1210 cells at G0-G1 phase |  |  |  |  | 
C=C1CCC2[C@@](C)(CC[C@@H](O)[C@@]2(C)CO)C1CC(C1=CCOC1=O)S(=O)(=O)[O-].[Na+] (some centres unmarked) [Lianbizhi, andrographolide sodium bisulfite] |  | > 1000 µM | > 1000 µM | > 1000 µM |  |  |  |  | > 1000 µM |  |  | did not change the cell cycle | did not influence growth | significantly inhibited |  |  | 
potassium sodium dehydroandrographolide succinate [Yanhuning] |  |  |  |  |  |  |  |  |  |  |  | did not change the cell cycle |  |  | ^c (no activity (>1 mM)) | ^c (no activity (>1 mM)) | ^c (no activity (>1 mM))
